The values below come from ChEMBL document CHEMBL4334546, “Discovery of N-(Indazol-3-yl)piperidine-4-carboxylic Acids as RORγt Allosteric Inhibitors for Autoimmune Diseases” (ACS Med Chem Lett, 2020).

In the assay the test system is Mus musculus. Put plainly: In vivo allosteric inhibition of RORgammaT in C57BL/6 mouse assessed as reduction in Bcl-xL expression in thymocytes administered as single dose measured after 2 hrs by TaqMan gene expression analysis. Format: functional, organism-based. For orientation: In qPCR the cycle at which signal appears reflects the starting amount.

Consider `O=C(O)c1ccc(-c2nn(C(=O)c3c(Cl)cccc3C(F)(F)F)c3cccnc23)c(F)c1`, for which the inhibition entry was “Dose-dependent effect”.
